Calls of active or inactive are those of the source. No cut-off for these calls is given here.
Key:
[1] = target: T1, PHD finger protein 6 (Homo sapiens) (UniProt Q8IWS0); experiment: Inhibition of PHF6 (unknown origin) aggregation at 10 uM incubated for 4 hrs by ThT fluorescence based R3 aggregation assay relative to control
T1 sequence (whole entry): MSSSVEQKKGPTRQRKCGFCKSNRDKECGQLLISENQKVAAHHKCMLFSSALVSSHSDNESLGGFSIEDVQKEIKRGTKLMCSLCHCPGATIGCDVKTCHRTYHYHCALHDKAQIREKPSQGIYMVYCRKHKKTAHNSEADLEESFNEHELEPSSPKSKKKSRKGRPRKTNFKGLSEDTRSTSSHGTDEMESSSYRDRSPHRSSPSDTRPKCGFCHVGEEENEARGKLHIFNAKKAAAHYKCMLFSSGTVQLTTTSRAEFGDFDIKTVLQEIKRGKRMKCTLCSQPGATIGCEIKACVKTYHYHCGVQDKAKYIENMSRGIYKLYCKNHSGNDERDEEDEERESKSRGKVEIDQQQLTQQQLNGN

Protein sequences, listed by entry. Tags and fused reporters are not part of them.
UniProt P10636, whole entry: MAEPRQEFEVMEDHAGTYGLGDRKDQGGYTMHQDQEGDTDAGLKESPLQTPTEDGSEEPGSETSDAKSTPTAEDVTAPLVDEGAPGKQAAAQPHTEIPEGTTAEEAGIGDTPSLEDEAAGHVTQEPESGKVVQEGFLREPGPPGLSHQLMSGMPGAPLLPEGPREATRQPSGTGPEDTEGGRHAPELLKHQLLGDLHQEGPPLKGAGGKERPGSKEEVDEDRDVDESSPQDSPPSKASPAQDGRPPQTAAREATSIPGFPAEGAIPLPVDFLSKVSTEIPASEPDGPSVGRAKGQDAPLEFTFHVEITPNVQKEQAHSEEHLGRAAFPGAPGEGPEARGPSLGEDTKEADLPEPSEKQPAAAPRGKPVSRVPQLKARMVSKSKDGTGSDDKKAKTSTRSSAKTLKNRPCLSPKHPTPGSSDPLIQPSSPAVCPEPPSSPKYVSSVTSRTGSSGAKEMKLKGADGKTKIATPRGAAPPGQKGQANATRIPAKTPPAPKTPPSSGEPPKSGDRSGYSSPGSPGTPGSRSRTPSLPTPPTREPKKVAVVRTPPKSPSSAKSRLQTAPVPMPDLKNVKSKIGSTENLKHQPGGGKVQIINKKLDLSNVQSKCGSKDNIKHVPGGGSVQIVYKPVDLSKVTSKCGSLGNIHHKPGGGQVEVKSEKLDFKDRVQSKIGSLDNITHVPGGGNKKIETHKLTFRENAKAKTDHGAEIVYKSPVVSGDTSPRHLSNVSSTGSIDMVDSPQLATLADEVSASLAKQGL

[2] = target: T1, PHD finger protein 6 (Homo sapiens); experiment: Inhibition of PHF6 (unknown origin) aggregation at 25 uM incubated for 3 hrs by ThT fluorescence based assay relative to control
[3] = target: Microtubule-associated protein tau (Homo sapiens, UniProt P10636); experiment: Inhibition of GFP/RFP-fused tau oligomerization in human SH-SY5Y cells at 10 uM incubated for 2 hrs by FRET assay; type: cell-based

| SMILES | inhibition [1] | inhibition [2] | inhibition [3] |
| --- | --- | --- | --- |
| CCCCCCNC(=O)c1nc2ccc(O)cc2s1 | > 50% |  |  |
| COc1ccc(CNC(=O)c2nc3ccc(O)cc3s2)cc1OC | > 50% |  |  |
| COc1ccc(CNC(=O)c2nc3ccc(O)cc3s2)cc1F | > 50% |  |  |
| O=C(NC1CCCCC1)c1nc2ccc(O)cc2s1 | > 50% | > 50% |  |
| O=C(NCc1cccs1)c1nc2ccc(O)cc2s1 | > 50% |  |  |
| O=C(NCc1cccc(F)c1F)c1nc2ccc(O)cc2s1 | > 50% | > 50% |  |
| O=C(NCc1ccc(F)c(F)c1)c1nc2ccc(O)cc2s1 | > 50% | > 50% |  |
| O=C(NCCc1cc2ccccc2[nH]1)c1nc2ccc(O)cc2s1 | > 50% | > 50% | Active |
| COc1ccc(CNC(=O)c2nc3ccc(O)cc3s2)c(OC)c1 | > 50% |  |  |
| O=c1c(O)c(-c2ccc(O)c(O)c2)oc2cc(O)cc(O)c12 | > 50% |  |  |
| O=C(NCCc1ccccc1)c1nc2ccc(O)cc2s1 | > 50% | > 50% | Active |
| Cc1cc(C)cc(CNC(=O)c2nc3ccc(O)cc3s2)c1 | > 50% |  |  |
| O=C(NCc1ccc([N+](=O)[O-])cc1)c1nc2ccc(O)cc2s1 | > 50% |  |  |
